Measurements as given in patent US20160193316A1 (priority 1994, published 2016).

By UniProt entry, the sequences of proteins in these tests, tags left out. Residues count along the entry.
UniProt Q30154, 30-266: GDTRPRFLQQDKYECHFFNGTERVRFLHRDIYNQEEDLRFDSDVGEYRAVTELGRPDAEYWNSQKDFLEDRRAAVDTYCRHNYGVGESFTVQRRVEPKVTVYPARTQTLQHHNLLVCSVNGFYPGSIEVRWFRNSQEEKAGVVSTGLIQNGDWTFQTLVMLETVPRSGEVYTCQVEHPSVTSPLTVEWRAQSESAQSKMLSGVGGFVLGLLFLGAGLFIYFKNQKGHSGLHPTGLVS

How the values were obtained:
DRB1*0101 (DR1) = target: T1, DRB1*0101 (DR1) (Homo sapiens, UniProt P01903+P01911, A100R/D57E/F55L/F60I/F76Y/I96L/L162R/M171V/P40L/Q125E/R42F/V115G/Y59C); experiment: HLA class II peptide binding assay; settings: for DR1 binding data: Table XIXb, Malaria Super Motif Peptides With Binding Data
T1 construct: endogenous in cells; host or cells: LG2

HLA-A*0201 = HLA-A*0201 (Homo sapiens, UniProt P04439, D140Y/D185E/D98H/E176V/E277Q/G131W/G231S/I119V/I121R/I166T/I218V/L300P/L318F/N151K/N90K/P208A/P217A/Q86G/Q94H/R138H/R169H/T345S); experiment: HLA class I peptide binding assay; settings: Malaria A02 motif peptides, Table VIII; unit not given
DRB1*0901 (DR9) = target: T2, DRB1*0901 (DR9) (Homo sapiens, UniProt P01903+P01911, A100R/A103E/D57H/D86V/F55Y/F60I/F76Y/I96F/K127E/L162R/M171V/P40D/Q125H/Q99R/R33Q/R42F/S133A/S66N/T210M/V115G/W38K/Y107V/Y59G/Y89S); experiment: biochemical; format: binding
T2 construct: endogenous in cells; host or cells: HID

DRB1*0401 (DR4w4) = target: T3, DRB1*0401 (DR4w4) (Homo sapiens, UniProt P01903+P01911, A100K/A169T/F76Y/I96L/K127E/L162R/M171V/N62H/P40V/Q125Y/R42H/S133A/S149N/S66Y/V115G/V209L/W38E); experiment: HLA class II peptide binding assay; settings: for DR4w4 binding data: Table XIXb
T3 construct: endogenous in cells; host or cells: Preiss

DRB1*1302 (DR6w19) = target: T4, DRB1*1302 (DR6w19) (Homo sapiens, UniProt P01903+P01911, A100E/A169T/K41T/L162R/M171V/P40S/Q125H/Q178H/Q39Y/Q99D/R42S/S66N/T262R/V115G/W38E/Y61H); experiment: HLA class II peptide binding assay; settings: for DR6w19 binding data: Table XIXb
T4 construct: endogenous in cells; host or cells: H0301

DRB5*0101 (DR2w2β2) = target: T5, DRB5*0101 (DR2w2β2) (Homo sapiens, UniProt P01903+Q30154); experiment: biochemical; format: binding
T5 construct: expressed in transfected cells; host or cells: L416.3 (fibroblasts) or GM3107

DRB1*0802 (DR8w2) = target: T6, DRB1*0802 (DR8w2) (Homo sapiens, UniProt P01903+P01911, A100R/A103L/A169T/F76Y/H45Y/I96F/K41T/L162R/M171V/P40S/Q125H/Q178H/Q39Y/Q99D/R218S/R42G/S66Y/V115G/W38E); format: binding
T6 construct: endogenous in cells; host or cells: OLL

DRB1*1501 (DR2w2β1) = target: T7, DRB1*1501 (DR2w2β1) (Homo sapiens, UniProt P01903+P01911); experiment: HLA class II peptide binding assay; settings: for DR2w2β1 binding data: Table XIXb
T7 construct: expressed in transfected cells; host or cells: L466.1 (fibroblasts)

DRB1*0405 (DR4w15) = target: T8, DRB1*0405 (DR4w15) (Homo sapiens, UniProt P01903+P01911, A100R/A169T/D86S/F76Y/I96L/K127E/L162R/M171V/N62H/P40V/Q125Y/R42H/S133A/S149N/S66Y/V115G/V209L/W38E); experiment: HLA class II peptide binding assay; settings: for DR4w15 binding data: Table XIXb
T8 construct: endogenous in cells; host or cells: KT3

DRB1*1201 (DR5w12) = target: T9, DRB1*1201 (DR5w12) (Homo sapiens, UniProt P01903+P01911, A100R/A169T/D57E/D86V/F55L/H45Y/K41T/L162R/M171V/P40S/Q125H/Q178H/Q39Y/Q99D/R42G/S66L/T262R/V114A/V67L/W38E/Y59H/Y61H/Y89S); experiment: HLA class II peptide binding assay; settings: for DR5w12 binding data: Table XIXb
T9 construct: endogenous in cells; host or cells: Herluf

DRB4*0101 (DRw53) = target: T10, DRB4*0101 (DRw53) (Homo sapiens, UniProt P01903+P13762, G164S); experiment: HLA class II peptide binding assay (pH 5.0); settings: Table XIXb
T10 construct: expressed in transfected cells; host or cells: L257.6 (fibroblasts)

DRB1*0701 (DR7) = target: T11, DRB1*0701 (DR7) (Homo sapiens, UniProt P01903+P01911, A100R/A102G/A103Q/D57E/D86V/E43K/F76Y/K127E/L162R/M171V/P40G/Q125H/Q99D/R33Q/R42Y/R54Q/S133A/S66F/T210M/V115G/Y107V/Y59L/Y89S); format: binding
T11 construct: endogenous in cells; host or cells: Pitout

DRB1*0301 (DR3) = target: T12, DRB1*0301 (DR3) (Homo sapiens, UniProt P01903+P01911, A100K/A102G/A103R/A169T/F55Y/I96L/K41T/L162R/M171V/P40S/Q125H/Q178H/Q39Y/R42S/S66N/T106N/T262R/W38E/Y61H); experiment: HLA class II peptide binding assay (pH 4.5); settings: for DR3 binding data: Table XIXb
T12 construct: endogenous in cells; host or cells: MAT

HLA-A*1101 = HLA-A*1101 (Homo sapiens, UniProt P04439, A114D/D185E/E176A/F33Y/L180Q/S129P/T187R); experiment: HLA class I peptide binding assay; settings: Malaria A11 motif peptides, Table XVII; binding value for HLA-A*1101, unit not given
HLA-A*0301 = target: T13, HLA-A*0301 (Homo sapiens, UniProt P04439); experiment: HLA class I peptide binding assay; settings: Malaria A03 supermotif peptides; binding value, no unit given
T13 construct: endogenous in cells; host or cells: GM3107

[1] = Malaria DR3b motif peptides, unit not given

Molecule | DR1 binding data (DRB1*0101 (DR1)) | DR4w4 binding data (DRB1*0401 (DR4w4)) | DR6w19 binding data (DRB1*1302 (DR6w19)) | DR2w2β2 binding data (DRB5*0101 (DR2w2β2)) | DR8w2 binding data (DRB1*0802 (DR8w2)) | DR2w2β1 binding data (DRB1*1501 (DR2w2β1)) | DR4w15 binding data (DRB1*0405 (DR4w15)) | DR5w12 binding data (DRB1*1201 (DR5w12)) | DRw53 binding data (DRB4*0101 (DRw53)) | DR7 binding data (DRB1*0701 (DR7)) | DR3 binding data (DRB1*0301 (DR3)) | also measured
LVNLLIFHI | 0.0018 | 0.0160 | 0.0013 | 0.0120 | 0.0005 | 0.0004 | 0.0027 | 0.0006 | 0.0290 | 0.0059 | -0.008 | A*0201 (binding information) (HLA-A*0201): 0.0006; DR9 binding data (DRB1*0901 (DR9)): 0.0040
LLIFHINGK | 0.0640 | 0.0110 |  | 0.0070 |  | 0.7100 | -0.0030 | 0.0410 |  |  | -0.0043 | A*1101 (binding information) (HLA-A*1101): 0.0100
NLLIGHINGK |  |  |  |  |  |  |  |  |  |  |  | A*301 (binding data) (HLA-A*0301): 0.0049
INGKIIKNS | 0.0320 | -0.0007 | 0.0120 | 0.0660 | 0.0400 | 0.0220 | 0.0038 | 0.0055 | 0.0020 | 0.0150 | 0.0120 | 
FHINGKIIK |  |  |  |  |  |  |  |  |  |  |  | DR1 binding information (DRB1*0101 (DR1); [1]): 0.5700; DR9 binding information (DRB1*0901 (DR9)): 0.1500; DR4w4 binding information (DRB1*0401 (DR4w4); [1]): 0.0060; DR6w19 binding information (DRB1*1302 (DR6w19); [1]): 0.0330; DR2w2β2 binding information (DRB5*0101 (DR2w2β2)): 0.2500; DR8w2 binding information (DRB1*0802 (DR8w2)): 0.1400; DR2w2β1 binding information (DRB1*1501 (DR2w2β1); [1]): 0.2900; DR4w15 binding information (DRB1*0405 (DR4w15); [1]): -0.0030; DR5w12 binding information (DRB1*1201 (DR5w12); [1]): 0.0230; DR7 binding information (DRB1*0701 (DR7)): 0.1300; DR3 binding information (DRB1*0301 (DR3); [1]): 0.5300
CC[C@H](C)[C@H](NC(=O)[C@H](Cc1c[nH]cn1)NC(=O)[C@H](Cc1ccccc1)NC(=O)[C@@H](NC(=O)[C@H](CC(C)C)NC(=O)[C@@H](N)CC(C)C)[C@@H](C)CC)C(=O)N[C@@H](CC(N)=O)C(=O)NCC(=O)N[C@@H](CCCCN)C(=O)N[C@H](C(=O)N[C@H](C(=O)N[C@@H](CCCCN)C(=O)N[C@@H](CC(N)=O)C(=O)N[C@@H](CO)C(=O)N[C@@H](CCC(=O)O)C(=O)O)[C@@H](C)CC)[C@@H](C)CC [Peptide 27.0402] |  |  |  |  |  |  |  |  |  |  |  | IC50 (DRB1*0901 (DR9)): 0.5 µM; IC50 (DRB5*0101 (DR2w2β2)): 0.08 µM; Alleles bound (DR3) (DRB1*0301 (DR3); binding to DR3, Table XXXIV): DR3
